T1: Tn5 transposase hyperactive mutant (EK54, MA56, LP372) (UniProt Q46731 Q46731:1-476, E54K,M56A,L372P)
T1 sequence: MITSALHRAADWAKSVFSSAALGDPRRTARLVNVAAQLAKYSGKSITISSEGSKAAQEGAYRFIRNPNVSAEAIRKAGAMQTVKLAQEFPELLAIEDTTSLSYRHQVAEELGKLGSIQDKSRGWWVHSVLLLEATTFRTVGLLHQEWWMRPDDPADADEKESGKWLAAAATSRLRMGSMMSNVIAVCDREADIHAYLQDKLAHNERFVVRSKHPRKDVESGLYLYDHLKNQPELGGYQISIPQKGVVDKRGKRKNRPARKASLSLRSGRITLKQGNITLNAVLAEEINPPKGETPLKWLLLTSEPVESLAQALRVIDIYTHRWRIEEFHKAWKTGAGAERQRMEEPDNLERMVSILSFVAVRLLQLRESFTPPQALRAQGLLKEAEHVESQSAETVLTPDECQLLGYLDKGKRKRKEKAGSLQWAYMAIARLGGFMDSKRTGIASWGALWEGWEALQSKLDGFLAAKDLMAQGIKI


What was measured:
[1] = molecular target: T1, Tn5 transposase hyperactive mutant …; assay: FP; self-competition by unlabeled DNA; 160 nM labeled DNA, 800 nM transposase; settings: chain copies: 2; label: rhodamine green 5' end of transferred strand
Description: (§1) FIG. 4 is a comparison of FP and gel shift synapsis assays. Fluorescence polarization (FP) is a good measurement of the amount of synaptic complexes being formed. Increasing concentrations of unlabeled DNA (0.001, 0.005, 0.01, 0.05, 0.1, 0.5, 1, 2, 5, 8, 10, 20, 50 μM) was used as a competitive inhibitor for synaptic complex formation using 160 nM fluorescently labeled DNA and 800 nM transposase. FP data (bottom) was compared to data obtained using gel shift assays (top). Bands labeled hetero DNA-transposase represent two dsDNA molecules, one fluorescently labeled and one unlabeled. […] Each data point represents at least two, typically three, independent experiments. Error is represented as the standard deviation (SD) from the fit of the data to the equation used to calculate the IC₅₀. Tnp=transposase.
(§2) FP and gel-shift assays: Reactions were performed as described in Ason, B., and W. S. Reznikoff, J Mol Biol 335:1213-25, 2004, except 800 nM transposase and 160 nM dsDNA were used for complex formation. For FP analysis, 60 μL reactions were analyzed using the FP protocol on a Wallac Victor V plate reader and a 7% native polyacrylamide gel was used in gel shift assays. For compound screening and subsequent analysis, 1 μL of either DMSO or test compound (final concentration 80 μM) was added to the synapsis reactions. […]

[2] = molecular target: T1, Tn5 transposase hyperactive mutant …; assay: EMSA; self-competition by unlabeled DNA; 160 nM labeled DNA, 800 nM transposase; settings: chain copies: 2; label: fluorescein 5' end of transferred strand
Description: as §1, §2

Binder	IC50 [1]	IC50 [2]
19 bp Tn5 recognition end (dsDNA) DNA 1: CTGTCTCTTATACACATCT DNA 2: AGATGTGTATAAGAGACAG	2.6 µM	–
40 bp Tn5 transposon end (dsDNA) DNA 1: CTGTCTCTTATACACATCTTGAGTGAGTGAGCATGCATGT DNA 2: ACATGCATGCTCACTCACTCAAGATGTGTATAAGAGACAG	–	5.1 µM

From patent US20060035245, “Modulators of enzymatic nucleic acid elements mobilization” (published 2006)
